# Values quoted from earlier work in patent US8759324B2 (priority 2006, dated 2014).
# Conditions: intravenous 1.1 g of CP, at the peak CP levels; cited from earlier work
substance,measurement,value
4-hydroxycyclophosphamide,4-OHCP plasma level,0.69 µg/mL
